Measurements published in PubChem BioAssay (NCI).
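Assay format: 96-well plates, 48-hour exposure. Here, GI50 denotes the concentration required for 50% inhibition of growth. TGI: total growth inhibition.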

How the values were obtained:
Assay in all cases: growth of human tumour cells (NCI), 48 h
[1] = tested on: 786-0 renal
[2] = tested on: A498 renal
[3] = tested on: A549 NSCLC
[4] = tested on: ACHN renal
[5] = tested on: CAKI-1 renal
[6] = tested on: CCRF-CEM leukemia
[7] = tested on: COLO 205 colon
[8] = tested on: DU-145 prostate
[9] = tested on: EKVX NSCLC
[10] = tested on: HCT-116 colon
[11] = tested on: HL-60(TB) leukemia
[12] = tested on: HOP-62 NSCLC
[13] = tested on: HOP-92 NSCLC
[14] = tested on: HS 578T breast
[15] = tested on: HT29 colon
[16] = tested on: IGROV1 ovarian
[17] = tested on: K-562 leukemia
[18] = tested on: KM12 colon
[19] = tested on: LOX IMVI melanoma
[20] = tested on: M14 melanoma
[21] = tested on: MALME-3M melanoma
[22] = tested on: MCF7 breast
[23] = tested on: MDA-MB-231 breast
[24] = tested on: MDA-MB-435
[25] = tested on: MDA-N
[26] = tested on: MOLT-4 leukemia
[27] = tested on: NCI-H226 lung
[28] = tested on: NCI-H322M lung
[29] = tested on: NCI-H522 lung
[30] = tested on: OVCAR-3 ovarian
[31] = tested on: OVCAR-4 ovarian
[32] = tested on: OVCAR-5 ovarian
[33] = tested on: OVCAR-8 ovarian
[34] = tested on: PC-3 prostate
[35] = tested on: RPMI-8226 leukemia
[36] = tested on: RXF 393 renal
[37] = tested on: SF-268 CNS
[38] = tested on: SF-295 CNS
[39] = tested on: SF-539 CNS
[40] = tested on: SK-MEL-2 melanoma
[41] = tested on: SK-MEL-28 melanoma
[42] = tested on: SK-MEL-5 melanoma
[43] = tested on: SK-OV-3 ovarian
[44] = tested on: SN12C renal
[45] = tested on: SNB-19 CNS
[46] = tested on: SNB-75 CNS
[47] = tested on: SR leukemia
[48] = tested on: SW-620 colon
[49] = tested on: T-47D breast
[50] = tested on: TK-10 renal
[51] = tested on: U251 CNS
[52] = tested on: UACC-257 melanoma
[53] = tested on: UO-31 renal

Question: `COc1ccc(C(OC[C@H]2O[C@@H](n3cc(C)c(=O)[nH]c3=O)C[C@@H]2O[P@](C)(=S)OC)(c2ccccc2)c2ccc(OC)cc2)cc1` was tested. Which GI50 [1] did it give?
Answer: Its GI50 is greater than 100 µM.

Question: What about the TGI [1] of the same compound?
Answer: The TGI was greater than 100 µM.

Question: And the GI50 [2]?
Answer: Its GI50 is greater than 100 µM.

Question: What about the TGI [2] of the same compound?
Answer: The TGI was greater than 100 µM.

Question: What about the GI50 [3] of the same compound?
Answer: The GI50 was 4.95 µM.

Question: What about the TGI [3] of the same compound?
Answer: Its TGI is greater than 100 µM.

Question: What about the GI50 [4] of the same compound?
Answer: The GI50 was greater than 100 µM.

Question: What about the TGI [4] of the same compound?
Answer: The TGI was greater than 100 µM.

Question: And the GI50 [5]?
Answer: The GI50 was 79.6 µM.

Question: And the TGI [5]?
Answer: Its TGI is greater than 100 µM.

Question: What about the GI50 [6] of the same compound?
Answer: Its GI50 is 5.9 µM.

Question: And the TGI [6]?
Answer: The TGI was greater than 100 µM.

Question: And the GI50 [7]?
Answer: The GI50 was 17.8 µM.

Question: And the TGI [7]?
Answer: Its TGI is greater than 100 µM.

Question: What about the GI50 [8] of the same compound?
Answer: The GI50 was greater than 100 µM.

Question: And the TGI [8]?
Answer: The TGI was greater than 100 µM.

Question: What about the GI50 [9] of the same compound?
Answer: The GI50 was 13.1 µM.

Question: What about the TGI [9] of the same compound?
Answer: The TGI was greater than 100 µM.

Question: And the GI50 [10]?
Answer: The GI50 was 62.7 µM.

Question: And the TGI [10]?
Answer: The TGI was greater than 100 µM.

Question: And the GI50 [11]?
Answer: The GI50 was greater than 100 µM.

Question: And the TGI [11]?
Answer: Its TGI is greater than 100 µM.

Question: And the GI50 [12]?
Answer: The GI50 was greater than 100 µM.

Question: What about the TGI [12] of the same compound?
Answer: The TGI was greater than 100 µM.

Question: And the GI50 [13]?
Answer: Its GI50 is 26 µM.

Question: What about the TGI [13] of the same compound?
Answer: Its TGI is greater than 100 µM.

Question: And the GI50 [14]?
Answer: Its GI50 is 40.3 µM.

Question: And the TGI [14]?
Answer: Its TGI is greater than 100 µM.

Question: What about the GI50 [15] of the same compound?
Answer: The GI50 was greater than 100 µM.

Question: What about the TGI [15] of the same compound?
Answer: Its TGI is greater than 100 µM.

Question: What about the GI50 [16] of the same compound?
Answer: The GI50 was greater than 100 µM.

Question: And the TGI [16]?
Answer: Its TGI is greater than 100 µM.

Question: And the GI50 [17]?
Answer: The GI50 was 5.76 µM.

Question: And the TGI [17]?
Answer: The TGI was greater than 100 µM.

Question: What about the GI50 [18] of the same compound?
Answer: Its GI50 is greater than 100 µM.

Question: What about the TGI [18] of the same compound?
Answer: The TGI was greater than 100 µM.

Question: What about the GI50 [19] of the same compound?
Answer: Its GI50 is greater than 100 µM.

Question: And the TGI [19]?
Answer: The TGI was greater than 100 µM.

Question: What about the GI50 [20] of the same compound?
Answer: Its GI50 is greater than 100 µM.

Question: What about the TGI [20] of the same compound?
Answer: The TGI was greater than 100 µM.

Question: What about the GI50 [21] of the same compound?
Answer: The GI50 was greater than 100 µM.

Question: And the TGI [21]?
Answer: The TGI was greater than 100 µM.

Question: What about the GI50 [22] of the same compound?
Answer: Its GI50 is 6.02 µM.

Question: What about the TGI [22] of the same compound?
Answer: Its TGI is greater than 100 µM.

Question: And the GI50 [23]?
Answer: The GI50 was 84 µM.

Question: And the TGI [23]?
Answer: The TGI was greater than 100 µM.

Question: And the GI50 [24]?
Answer: Its GI50 is 9.18 µM.

Question: What about the TGI [24] of the same compound?
Answer: Its TGI is greater than 100 µM.

Question: And the GI50 [25]?
Answer: The GI50 was greater than 100 µM.

Question: What about the TGI [25] of the same compound?
Answer: The TGI was greater than 100 µM.

Question: What about the GI50 [26] of the same compound?
Answer: Its GI50 is 2.33 µM.

Question: What about the TGI [26] of the same compound?
Answer: Its TGI is greater than 100 µM.

Question: What about the GI50 [27] of the same compound?
Answer: The GI50 was 25 µM.

Question: What about the TGI [27] of the same compound?
Answer: The TGI was greater than 100 µM.

Question: And the GI50 [28]?
Answer: The GI50 was greater than 100 µM.

Question: And the TGI [28]?
Answer: Its TGI is greater than 100 µM.

Question: And the GI50 [29]?
Answer: Its GI50 is 26.1 µM.

Question: And the TGI [29]?
Answer: The TGI was greater than 100 µM.

Question: What about the GI50 [30] of the same compound?
Answer: The GI50 was greater than 100 µM.

Question: And the TGI [30]?
Answer: Its TGI is greater than 100 µM.

Question: And the GI50 [31]?
Answer: The GI50 was 5 µM.

Question: And the TGI [31]?
Answer: Its TGI is greater than 100 µM.

Question: And the GI50 [32]?
Answer: The GI50 was greater than 100 µM.

Question: What about the TGI [32] of the same compound?
Answer: Its TGI is greater than 100 µM.

Question: What about the GI50 [33] of the same compound?
Answer: The GI50 was greater than 100 µM.

Question: And the TGI [33]?
Answer: The TGI was greater than 100 µM.

Question: And the GI50 [34]?
Answer: Its GI50 is 4.56 µM.

Question: What about the TGI [34] of the same compound?
Answer: Its TGI is greater than 100 µM.

Question: What about the GI50 [35] of the same compound?
Answer: The GI50 was 4.94 µM.

Question: What about the TGI [35] of the same compound?
Answer: Its TGI is greater than 100 µM.

Question: And the GI50 [36]?
Answer: The GI50 was 4.09 µM.

Question: And the TGI [36]?
Answer: The TGI was greater than 100 µM.

Question: And the GI50 [37]?
Answer: Its GI50 is 51.8 µM.

Question: And the TGI [37]?
Answer: Its TGI is greater than 100 µM.

Question: What about the GI50 [38] of the same compound?
Answer: The GI50 was 30.2 µM.

Question: And the TGI [38]?
Answer: Its TGI is greater than 100 µM.

Question: And the GI50 [39]?
Answer: Its GI50 is greater than 100 µM.

Question: What about the TGI [39] of the same compound?
Answer: The TGI was greater than 100 µM.

Question: What about the GI50 [40] of the same compound?
Answer: Its GI50 is greater than 100 µM.

Question: And the TGI [40]?
Answer: The TGI was greater than 100 µM.

Question: And the GI50 [41]?
Answer: The GI50 was greater than 100 µM.

Question: And the TGI [41]?
Answer: Its TGI is greater than 100 µM.

Question: And the GI50 [42]?
Answer: Its GI50 is 10.8 µM.

Question: What about the TGI [42] of the same compound?
Answer: Its TGI is greater than 100 µM.

Question: What about the GI50 [43] of the same compound?
Answer: Its GI50 is greater than 100 µM.

Question: And the TGI [43]?
Answer: The TGI was greater than 100 µM.

Question: And the GI50 [44]?
Answer: Its GI50 is greater than 100 µM.

Question: What about the TGI [44] of the same compound?
Answer: The TGI was greater than 100 µM.

Question: What about the GI50 [45] of the same compound?
Answer: The GI50 was greater than 100 µM.

Question: And the TGI [45]?
Answer: Its TGI is greater than 100 µM.

Question: And the GI50 [46]?
Answer: Its GI50 is 23.6 µM.

Question: And the TGI [46]?
Answer: Its TGI is greater than 100 µM.

Question: What about the GI50 [47] of the same compound?
Answer: The GI50 was 9.22 µM.

Question: And the TGI [47]?
Answer: Its TGI is greater than 100 µM.

Question: And the GI50 [48]?
Answer: The GI50 was greater than 100 µM.

Question: And the TGI [48]?
Answer: Its TGI is greater than 100 µM.

Question: And the GI50 [49]?
Answer: Its GI50 is 2.47 µM.

Question: What about the TGI [49] of the same compound?
Answer: The TGI was greater than 100 µM.

Question: And the GI50 [50]?
Answer: The GI50 was greater than 100 µM.

Question: And the TGI [50]?
Answer: Its TGI is greater than 100 µM.

Question: What about the GI50 [51] of the same compound?
Answer: The GI50 was 9.94 µM.

Question: What about the TGI [51] of the same compound?
Answer: Its TGI is greater than 100 µM.

Question: What about the GI50 [52] of the same compound?
Answer: Its GI50 is greater than 100 µM.

Question: What about the TGI [52] of the same compound?
Answer: Its TGI is greater than 100 µM.

Question: What about the GI50 [53] of the same compound?
Answer: The GI50 was 7.93 µM.

Question: What about the TGI [53] of the same compound?
Answer: The TGI was greater than 100 µM.
